# Antibody variant affinities, Ab-91 heavy chain, assay 2

Antigen: PDVDLGDISGINAS, a 14-residue peptide of the SARS-CoV-2 spike HR2 region.

Parent: Ab-91, a human scFv built as VL, three GGGGS repeats, VH. Only the CDRs of the heavy chain vary.
VL: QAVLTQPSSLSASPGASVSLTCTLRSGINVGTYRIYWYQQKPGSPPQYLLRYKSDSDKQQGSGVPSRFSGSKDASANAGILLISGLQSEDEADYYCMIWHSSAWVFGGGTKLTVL
VH: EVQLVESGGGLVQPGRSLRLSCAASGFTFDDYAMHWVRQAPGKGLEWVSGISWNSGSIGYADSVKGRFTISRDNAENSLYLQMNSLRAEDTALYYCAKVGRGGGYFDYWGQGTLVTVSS

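Phage display of a naive human antibody library on the peptide gave the parent. AAYL51 was designed without a model: most single CDR substitutions and a random sample of double and triple ones. Affinity was read by AlphaSeq, a pooled yeast mating assay with surface-displayed partners. After mating in shaken culture at 30 °C for 16 h, diploids were selected and their barcode pairs sequenced. Each replicate has its own calibration line, from reference interactions of the BCL2 family. Each pool was mated in three replicate cultures.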

Each variant is given by its three heavy chain CDRs, as the data file delimits them; those of the parent are GFTFDDYAMH, GISWNSGSIGYADSVK, VGRGGGYFDY. Values are log10 of the apparent Kd in nM; lower means stronger binding. Replicates are averaged; those with no signal do not enter the mean. A pair that was not seen in any replicate is written "not detected"; this usually means weak binding, but a binder can also be missed. As a blank, each scFv also met three strains without target: over library AAYL51, 21% of these pairings were detected, typically at 4.54 and seldom below 3.26. For each scFv, signals with the empty controls are counted beside the result.

CDR-H1 | CDR-H2 | CDR-H3 | mean log10 Kd (nM) | replicates with signal | control signals
GFWFDDYAMH | GISWNSGSIGYADSVK | VGRPGGWFDY | not detected | 0/3 | 1/9
GFTFDDYAMH | GISWNFGSIGMADSVK | VGRGGGTFDY | not detected | 0/3 | 0/9
GFTFDDYAMH | GMSWNSGSIRYADSVK | VGRGGGLFDY | not detected | 0/3 | 5/9
GFTFDDYAMH | GISWNSGSIGYAKSVK | VGRVGGYFDY | 4.85 | 3/3 | 4/9
GFTPDDYAMH | GISWPGGSIGYADSVK | VGRGGGYFDY | 4.29 | 1/3 | 3/9
QFTFDDEAMH | GISWNSGSIGYADSVK | VGRGGGSFDY | not detected | 0/3 | 1/9
GFTFDDYAMH | GISWNWGSIGYADWVK | VGRGGGYFDT | not detected | 0/3 | 0/9
DFTFDDYAMH | GISWNSGSIGYADSVS | VPRGGGYFDY | not detected | 0/3 | 3/9
GFTFDDYNMH | GISWHDGSIGYADSVK | VGRGGGYFDY | 2.83 | 1/3 | 1/9
GFTFDDYAMH | GISWNSDSIGYADSVK | VGRHGGYFDY | 2.10 | 3/3 | 3/9
QFTFDDYAMH | GKSWNSGSIGYADDVK | VGRGGGYFDY | not detected | 0/3 | 0/9
GFTFDDYAMH | GISWNSGSIGYADWVK | VGRGWGYFNY | 4.78 | 1/3 | 4/9
GFTFGDYAMH | GISWNSYSIGYADSVK | VGYGGGYFDY | 1.83 | 3/3 | 0/9
GFTFDDYAMH | GISGSSGSIGYADSVK | VGEGGGYFDY | not detected | 0/3 | 0/9
GFTFDDYAMH | GISTNSGSIGYADSVK | VWRGGGYFDY | 4.98 | 1/3 | 1/9
RTTFDDYAMH | GISWNSGSIGYADSVK | EGRGGGYFDY | not detected | 0/3 | 1/9
GFTFDDYAMH | GISWNSGSWTYADSVK | VGRGDGYFDY | 5.53 | 2/3 | 0/9
GFTFDDYAMH | GISWNSGQIGYADSVK | VGRGGGQFDY | 1.24 | 3/3 | 4/9
GFTFDDYQMH | GISWNSGSIGYADEVK | VGRGGGYFLY | 4.45 | 1/3 | 3/9
GFTFDDYAMH | GISWNGGSGGYADSVK | NGRGGGYFDY | 5.06 | 1/3 | 3/9
GFTFFNYAMH | GISWNSGSIGYADSVK | VGRGAGYFDY | not detected | 0/3 | 2/9
GFTFDDYAMH | GISWNSGSIGYGDSDK | VGRGGGYDDY | not detected | 0/3 | 2/9
GFTFDDYAKH | GIWWNSGSIGYADSVQ | VGRGGGYFDY | 5.35 | 1/3 | 2/9
GSTFDDYAMH | GISWNSGSDGYADSVK | VIRGGGYFDY | not detected | 0/3 | 0/9
GFTFDDYQMH | GICWNSGSIGGADSVK | VGRGGGYFDY | 3.97 | 1/3 | 2/9
GFTFDDYAMH | GISWNSGSIGYADSIK | VGRCGGYFDK | 3.61 | 3/3 | 6/9
GATFDDYAMH | GISWNSGSIGYAYSVK | VGRGGGYFDY | 2.60 | 1/3 | 1/9
GFTFDDYAMH | GLSWNSGSIGYNDSVK | VGRGGGPFDY | 5.96 | 2/3 | 3/9
GFTFDDYDMT | GISWNSGSIGYADSVK | VGRRGGYFDY | 4.80 | 2/3 | 7/9
GFTFDDPAMH | GISWNSGVIGYADSVK | VGHGGGYFDY | 4.88 | 1/3 | 5/9
QFTFDDYAMH | GILWNSGSIGYADSVK | VGHGGGYFDY | not detected | 0/3 | 2/9
GFTFDGYATH | GISWNSASIGYADSVK | VGRGGGYFDY | not detected | 0/3 | 0/9
GFTFDDPAMH | GILWNSGSIGKADSVK | VGRGGGYFDY | not detected | 0/3 | 2/9

Second part, the sequence after the result:

mean log10 Kd (nM) | replicates with signal | control signals | CDR-H1 | CDR-H2 | CDR-H3
5.51 | 2/3 | 6/9 | GFTFDDYAMH | GISWPSGSIGYADSVK | LGRGGGYFDS
5.69 | 1/3 | 3/9 | GFTWWDYAMH | GISTNSGSIGYADSVK | VGRGGGYFDY
not detected | 0/3 | 1/9 | VFTMDDYAMH | GISWNSGSIGYWDSVK | VGRGGGYFDY
not detected | 0/3 | 6/9 | GFAFDDYAMH | GISWNSGSGGYAVSVK | VGRGGGYFDY
0.95 | 3/3 | 5/9 | GFEFDDYAMH | GISWNAGSIGYADSVD | VGRGGGYFDY
1.86 | 3/3 | 5/9 | GFTFDDYAMH | GISWNSGSIGYADHVR | VGRGGYYFDY
4.55 | 3/3 | 3/9 | GFWFDDWAMH | GISWNSGMIGYADSVK | VGRGGGYFDY
4.98 | 1/3 | 0/9 | GFTFDDYAMH | GWSWNSGSIGYADSVK | VGRGGTRFDY
not detected | 0/3 | 0/9 | GFTFIDYAMH | GISSNSGSIGYRDSVK | VGRGGGYFDY
not detected | 0/3 | 1/9 | GFTFDDHAMH | GSSWNSGSIGNADSVK | VGRGGGYFDY
not detected | 0/3 | 3/9 | GFTFDDYLMH | GISWNSDSIGYTDSVK | VGRGGGYFDY
4.10 | 1/3 | 4/9 | GFTFDDYAMH | SISPNSGSIRYADSVK | VGRGGGYFDY
6.48 | 1/3 | 5/9 | GFTFDDYAMH | GISWNSGSIGMADSVK | VQRGGGNFDY
2.93 | 3/3 | 2/9 | GFTFDKYAMH | GISWNSGSCGYADSVK | VGRMGGYFDY
3.44 | 1/3 | 3/9 | GFTFDDYAMH | GISWNSGSIGYNDSVK | VQRGGGYFKY
3.91 | 2/3 | 5/9 | RFTFDDYAMH | GISWNSGEIGYADSVK | VQRGGGYFDY
not detected | 0/3 | 1/9 | GFTFDDYAMH | GIPWNSGKIGYADSVF | VGRGGGYFDY
not detected | 0/3 | 2/9 | WFTFDDYAMH | GISWNSGSIGYAISVA | VGRGGGYFDY
5.07 | 1/3 | 2/9 | GFTFDDYAMH | GPSWNSGSIGYADSVK | VGRGGPYFDY
5.38 | 1/3 | 4/9 | GFFQDDYAMH | GISWNSGSIGYEDSVK | VGRGGGYFDY
0.65 | 3/3 | 2/9 | GFTFHDYAMH | GISWNSGSIGYADSVM | VGRGGKYFDY
not detected | 0/3 | 0/9 | GFTFDDYAMH | GISWNWGSIGYAVSVK | VGRGGNYFDY
4.97 | 1/3 | 2/9 | GFTFDDYAMH | GISWNSGGIGYAYIVK | VGRGGGYFDY
4.77 | 1/3 | 4/9 | GFTSDDYAMH | GISWNAGSIGYADSVK | VGRGGGHFDY
4.50 | 2/3 | 4/9 | GFTFDDYAMH | GISWNSGSNGYADSVT | VNRGGGYFDY
not detected | 0/3 | 0/9 | GFTWDDYPMH | GIWWNSGSIGYADSVK | VGRGGGYFDY
4.90 | 2/3 | 3/9 | GFTFDDYNTH | GISWNSGSIGYADSVK | VGRGGGYFDY
not detected | 0/3 | 0/9 | GFTFDDYAMQ | GISWNSGSIGYADSVK | VGRYGGYFDY
not detected | 0/3 | 0/9 | GFTKDDYAMH | GISWNSGSIGYADSVK | VFRGGGYFDC
not detected | 0/3 | 0/9 | GFTFDDYAMH | GISTNSGSKGYADSVK | VGRNGGYFDY
not detected | 0/3 | 1/9 | GFTFDDYAMW | MISWNSGSIGYADSVK | VGRGGGYFDS
4.13 | 1/3 | 0/9 | GFTFDDYAGH | GPSWNSGSIGYADSVK | VGRGGGYQDY
2.58 | 1/3 | 0/9 | GFTFDDYAMH | GISWNSGSIGYAKSVK | VGRGGGCFDY
4.94 | 1/3 | 3/9 | GFTFDDYAMH | GISWNSGSIGYADSVK | VGNGGMYFDY

Excerpt, the final 6 entries:

CDR-H1,CDR-H2,CDR-H3,mean log10 Kd (nM),replicates with signal,control signals
GFTKDDYAMH,GISWNSGSIGYADSVK,VFRGGGYFDC,not detected,0/3,0/9
GFTFDDYAMH,GISTNSGSKGYADSVK,VGRNGGYFDY,not detected,0/3,0/9
GFTFDDYAMW,MISWNSGSIGYADSVK,VGRGGGYFDS,not detected,0/3,1/9
GFTFDDYAGH,GPSWNSGSIGYADSVK,VGRGGGYQDY,4.13,1/3,0/9
GFTFDDYAMH,GISWNSGSIGYAKSVK,VGRGGGCFDY,2.58,1/3,0/9
GFTFDDYAMH,GISWNSGSIGYADSVK,VGNGGMYFDY,4.94,1/3,3/9

For reference, the parent read 1.86 as the reference entry and 0.88 as a member of this library.

The measurements come from Engelhart et al. 2022 (doi:10.1038/s41597-022-01779-4) through the FLAb antibody collection.